Earlier results, collected in patent publication US5872104A, “Combinations and methods for reducing antimicrobial resistance” (Oridigm Corporation, priority 1994, dated 1999).

System: Streptococcus agalactactiae (group B)
Conditions: in µg/mL; cited from earlier work

## CC[C@H]1OC(=O)[C@H](C)[C@@H](O[C@H]2C[C@@](C)(OC)[C@@H](O)[C@H](C)O2)[C@H](C)[C@@H](O[C@@H]2O[C@H](C)C[C@H](N(C)C)[C@H]2O)[C@](C)(O)C[C@@H](C)CN(C)[C@H](C)[C@@H](O)[C@]1(C)O [Azithromycin]
  MIC90: 0.5
